In this test the target is T1, mouse oxMIF (mouse, UniProt P34884 2-115, oxidized isoform (mild oxidation or 0.2% Proclin300; endogenous in diseased mice); the modified residues are not stated).
T1 construct: also called murine oxMIF; recombinant moMIF treated with Proclin300
The test is described as follows: flow cytometry on whole blood of E. coli challenged mice, gated on granulocytes (GR1) and monocytes (CD14); 300 nM RAB9, detected with R-PE anti-human IgG. How it is done:
Blood from PBS- or E. coli-challenged mice was stained in Cell Staining Buffer (Biologend) with either Alexa700-labeled anti-CD3ε (for T cells) and PerCP-Cy5.5-labeled anti-Ly6G (for granulocytes) or APC-labeled anti-CD14 (for monocytes) and PE-Cy7-labeled anti-CD19 (for B cells) in parallel with 300 nM RAB9 or control IgG. After washing, the human antibodies were detected using the goat R-PE-labeled anti-human IgG antibodies. After washing, the red blood cells were lysed with the BD FACS™ Lysing solution (Becton Dickinson, Franklin Lakes, USA). Data acquisition was performed using a FACS™ Canto II (Becton Dickinson) with the DIVA™ software (software version 6; Becton Dickinson) and the data were analyzed using the FlowJo™ software (Treestar, Ashland, Oreg., USA).
The presence of oxMIF on the surface of the blood cells from peritonitic mice was analysed. Blood was harvested by cardiac puncture after 1, 3 or 21 h post-challenge, i.e. PBS for the control group and 2000 CFU E. coli for the peritonitic mice. The staining with RAB9 was performed on full blood and red cells were lysed before the analysis.
For orientation: A flow cytometer gives signals particle by particle.

B1: anti-MIF antibody RAB9 (antibody, human IgG4 S228P, kappa, V domains shown)
VH: EVQLLESGGGLVQPGGSLRLSCAASGFTFSIYSMNWVRQAPGKGLEWVSSIGSSGGTTYYADSVKGRFTISRDNSKNTLYLQMNSLRAEDTAVYYCAGSQWLYGMDVWGQGTTVTVSS
VL: DIQMTQSPSSLSASVGDRVTITCRSSQRIMTYLNWYQQKPGKAPKLLIFVASHSQSGVPSRFRGSGSETDFTLTISGLQPEDSATYYCQQSFWTPLTFGGGTKVEIKR
notes: Also deposited as plasmids DSM 25111 and DSM 25113; also called human anti-MIF monoclonal antibody RAB9; anti-oxMIF antibody RAB9
For B1, the binding result was “binds”.

(Values after patent US20140248638A1 (BAXALTA, published 2014).)
